Experimental data as given in US9364476B2, “Methods of treating a Bruton's Tyrosine Kinase disease or disorder” (Celgene Avilomics Research, Inc., priority 2011, dated 2016).
Like-named read-outs stand apart in the source and are kept apart here.

Amino acid sequences for entries named in this document (tags omitted).
UniProt Q06187, whole entry, species assumed: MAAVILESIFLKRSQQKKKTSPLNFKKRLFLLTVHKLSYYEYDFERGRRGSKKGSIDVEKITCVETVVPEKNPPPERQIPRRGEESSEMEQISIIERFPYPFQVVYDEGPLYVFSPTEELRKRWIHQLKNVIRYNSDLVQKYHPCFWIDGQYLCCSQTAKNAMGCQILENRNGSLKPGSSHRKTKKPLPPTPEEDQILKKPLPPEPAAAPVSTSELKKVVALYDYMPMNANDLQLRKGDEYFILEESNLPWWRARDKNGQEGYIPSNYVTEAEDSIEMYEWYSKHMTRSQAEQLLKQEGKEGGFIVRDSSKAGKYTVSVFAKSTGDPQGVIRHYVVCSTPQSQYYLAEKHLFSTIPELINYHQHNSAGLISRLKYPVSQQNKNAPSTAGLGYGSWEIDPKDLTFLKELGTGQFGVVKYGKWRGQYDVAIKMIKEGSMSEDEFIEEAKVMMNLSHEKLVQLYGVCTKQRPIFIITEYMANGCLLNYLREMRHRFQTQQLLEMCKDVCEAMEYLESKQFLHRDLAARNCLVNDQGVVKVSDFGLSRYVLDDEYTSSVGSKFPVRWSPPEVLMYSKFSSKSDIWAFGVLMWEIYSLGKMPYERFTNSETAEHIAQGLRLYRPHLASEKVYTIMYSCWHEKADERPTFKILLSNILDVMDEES

Tests used:
Btk [1] = molecular target: T1, Btk (Homo sapiens, UniProt Q06187); test: Btk inhibition; format: biochemical
[2] = once daily 125, 250, 400, 625 and 750 mg
Btk [3] = molecular target: T1, Btk; settings: dose levels ≧250 mg QD
Btk [4] = molecular target: T1, Btk; test: in vivo

C=CC(=O)Nc1cccc(Nc2nc(Nc3ccc(OCCOC)cc3)ncc2F)c1.O=S(=O)(O)c1ccccc1 [N-(3-(5-fluoro-2-(4-(2-methoxyethoxy)phenylamino)pyrimidin-4-ylamino)phenyl)acrylamide besylate]
IC50 (Btk [1]): < 0.5 nM
safety and tolerability [2]: generally safe and well-tolerated
Btk occupancy (Btk [3]): Full Btk occupancy
receptor occupancy at 125 mg (Btk [4]; read-out: Btk occupancy, cohort 1 (125 mg QD), one evaluable patient, 4 hours post-dose): 76%
receptor occupancy at 125 mg (Btk [4]; read-out: Btk occupancy, cohort 1 (125 mg QD), one evaluable patient, day 29 pre-dose): 36%
